Earlier results as cited in paper PMC4728608, “A Cell-Penetrating Peptide with a Guanidinylethyl Amine Structure Directed to Gene Delivery” (Scientific Reports, 2016).

Conditions: cited from earlier work
From the text: The unnatural amino acid described herein was a lysine (Lys) derivative with a guanidinylethyl (GEt) group in the side chain amine [Lys(GEt)] (Fig. 1).

N=C(N)NCCC[C@H](N)C(=O)O [Arg, Arginine]
pKa of protonated side chain (guanidine of Arg, primary amine of Lys): 12.5
